{"source": "paper PMC5385343", "about": "“Crystal Structure of Glyceraldehyde-3-Phosphate Dehydrogenase from the Gram-Positive Bacterial Pathogen A. vaginae, an Immunoevasive Factor that Interacts with the Human C5a Anaphylatoxin” (Frontiers in Microbiology, 2017)", "tested_on": "O=P(O)(O)O", "test": "purified protein", "details": "40 mM Tris-HCl pH 8.5, 2 mM EDTA, 25 °C, 0.1 μM enzyme, Pi varied 0.65-24 mM, co-substrates NAD+ and G3P, fixed concentrations not given"}
{"substance": "AvGAPDH (Fannyhessea vaginae DSM 15829)", "values": [{"measurement": "Km", "result": "3.4 ± 0.6", "unit": "mM"}, {"measurement": "Vmax", "result": 174000, "unit": "µM/min/mg"}, {"measurement": "kcat", "result": 29, "unit": "s⁻¹"}, {"measurement": "kcat/Km", "result": 8000, "unit": "M⁻¹ s⁻¹"}]}
